# Where “and” joins values, the source holds several entries; their conditions need not be identical. Identical values can stand only once. Counter-ions that a name gives are not always drawn.
# Tested on: lung cancer
# Test: Curative effect from in vivo studies in nude mice
# Conditions: summary of the study
compound,measurement,value
"C#Cc1cccc(Nc2ncnc3cc(OCCOC)c(OCCOC)cc23)c1 [Erlotinib HCl, N-(3-Ethylnylphenyl)-6,7-bis(2-methoxyethoxy)-4-quinazolinamine, reference compound]",curative effect (ratio of animals cured),50-60% and 40-60%

# Source: US8143250B2, “6-7,dialkoxy quinazoline derivatives useful for treatment of cancer related disorders” (priority 2008, dated 2012)
